# Laboratory results: PubChem BioAssay AID2052 (NMMLSC, 2009)
# This is a selection; strong and weak results do not stand in their true shares. Activity calls are given as the source filed them.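 How the source made its calls: active means response, share of CD8 T cells binding vesicles, and their 90th percentile fluorescence all below set limits (cut at about 80% in these data, passing the limit was not always enough); inactive means the rest, inconclusive results apart.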
# Assay: murine CD8 T cell vesicle adhesion modulation – mouse 2C CD8+ T cells, flow cytometry, primary screen (AID 2052);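 further: values below 100% mean blocked vesicle binding to the CD8+ T cells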
# Conditions: 2C CD8+ T cell-vesicle binding, at 7 µM, hits give low values
# Method in brief: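 Incubation: binding step 1.5 h, 37 °C, antibody labelling 20 min, ice; system: murine 2C transgenic CD8+ T lymphocytes; technique: cytometric PE anti-B7-1 and Alexa647 anti-CD8 signals after 1% paraformaldehyde fixation; also added: QL9-charged Drosophila Ld/ICAM-1/B7-1 vesicles; control set: naked versus QL9-loaded vesicles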
row,SMILES,response (vesicle binding)
1,CN(C)C1(CNC(=O)c2ccc(S(C)(=O)=O)cc2)CCCCC1,inactive: 236%
2,O=[N+]([O-])c1cc([N+](=O)[O-])c(Nc2nnnn2CCO)c([N+](=O)[O-])c1,inactive: 118%
3,COc1cc(C2NCCC3(OCCO3)C2(C)C)cc(OC)c1OC.O=[N+]([O-])c1cc([N+](=O)[O-])c(O)c([N+](=O)[O-])c1 (configuration not stated),inactive: 219%
4,Cc1ccc(C(=O)OC2CN3CCC2CC3)cc1 (configuration not stated),inactive: 204%
5,CC1CCC(C(C)C)C(OP(=O)(Nc2ccccn2)c2ccccc2)C1 (configuration not stated),inactive: 1070%
6,Cc1nn(-c2ccccc2)c2c1P(=O)(N1CCOCC1)N(C)C(c1ccccc1)=N2 (configuration not stated),inactive: 444%
7,CC1=NCCc2c1[nH]c1ccccc21.O=[N+]([O-])c1cc([N+](=O)[O-])c(O)c([N+](=O)[O-])c1,inactive: 219%
8,CN(C(=O)Cc1ccc(Cl)c(Cl)c1)[C@H]1CC[C@@]2(CCCO2)C[C@@H]1N1CCCC1,inactive: 180%
9,O=[N+]([O-])c1ccc2c(c1)nnn2O,inactive: 470%
10,CN(C)C(=O)c1cc([N+](=O)[O-])cc2c1-c1c(cc([N+](=O)[O-])cc1[N+](=O)[O-])C2=O,inactive: 371%
11,CCOP1(=S)c2c(C)nn(CCC#N)c2N=C(c2ccc(F)cc2)N1C (configuration not stated),inactive: 211%
12,CN(C(=O)Cc1ccccc1)[C@@H]1CC[C@]2(CCCO2)C[C@H]1N1CCCC1,inactive: 650%
13,N#CCCN(C(=O)COC(=O)C(O)(c1ccccc1)c1ccccc1)c1ccc(F)cc1,inactive: 324%
14,NC(=O)Nc1ccc([As](=O)(O)O)cc1,inactive: 460%
15,O=C(O)COc1ccc([As](=O)(O)O)cc1[N+](=O)[O-],inactive: 370%
16,Nc1ccccc1[As](=O)(O)c1ccccc1,inactive: 641%
17,CS(=O)(=O)c1cc([N+](=O)[O-])c2no[n+]([O-])c2c1,inactive: 198%
18,O=P(Nc1nccs1)(Oc1ccccc1)Oc1ccccc1,inactive: 374%
19,O=C(O)c1cccc(Nc2c([N+](=O)[O-])cc([N+](=O)[O-])cc2[N+](=O)[O-])c1,inactive: 220%
20,CCOP1(=S)c2c(C)nn(CCC#N)c2N=C(c2ccccc2F)N1C (configuration not stated),inactive: 804%
21,CCOP(=O)(Nc1cccc2ccccc12)OCC,inactive: 292%
22,Cc1ccc(C)c(NP(C)(=O)Oc2ccccc2)c1 (configuration not stated),inactive: 218%
23,CCCOP(=S)(Nc1nc(N)cc(=O)[nH]1)OCCC,inactive: 359%
24,Cc1ccc(NCCc2c([N+](=O)[O-])cc([N+](=O)[O-])cc2[N+](=O)[O-])cc1,inactive: 646%

row,SMILES,response (vesicle binding)
1,Nc1cccc2c([As](=O)(O)O)cccc12,inactive: 85.9%
2,Cc1cc(C)cc(OP(C)(=O)Nc2ccccn2)c1 (configuration not stated),inactive: 466%
3,CP(=O)(Nc1cccc(Br)c1)Oc1ccccc1 (configuration not stated),inactive: 299%
4,CCOC(=O)c1ccc(NP(C)(=O)Oc2cc(C)cc(C)c2)cc1 (configuration not stated),inactive: 341%
5,Cc1cc(C)cc(OP(C)(=O)Nc2ccc(C)cc2C)c1 (configuration not stated),inactive: 469%
6,Cc1cccc(OCC(=O)OC2CN3CCC2CC3)c1 (configuration not stated),inactive: 285%
7,O=[As](O)(c1cccc(O)c1)c1cccc(O)c1,inactive: 398%
8,COc1ccccc1OP(C)(=O)Nc1cccc(Br)c1 (configuration not stated),inactive: 1080%
9,CS(=O)(=O)c1ccc(Cl)c(NC(=O)COC(=O)C(O)(c2ccccc2)c2ccccc2)c1,inactive: 178%
10,O=[As](O)(O)c1cccnc1,inactive: 173%
11,COc1cc(C(=O)NCC2(N3CCOCC3)CCCCC2)cc(Cl)c1OC(C)C,inactive: 160%
12,O=C(OC1CN2CCC1CC2)c1ccc(Cl)cc1 (configuration not stated),inactive: 1230%
13,COc1ccc(N/C(=N/P(=O)(N2CCOCC2)N2CCOCC2)N2CCOCC2)cc1,inactive: 345%
14,COc1cc(I)ccc1[As](=O)(O)O,inactive: 181%
15,COc1ccc2nc(NP(=O)(c3ccccc3)c3ccccc3)sc2c1,inactive: 290%
16,Cc1cc(=O)[nH]c(N[N+](=O)[O-])n1,inactive: 444%
17,CCN(CC)CCCOC(=O)C(O)(c1ccccc1)c1ccccc1,inactive: 391%
18,O=C(OC1CN2CCC1CC2)C12CC3CC(CC(C3)C1)C2 (configuration not stated),inactive: 534%
19,Cc1c2c(nc3ccccc13)SC(C(Cl)Cl)C2 (configuration not stated),inactive: 240%
20,Cc1cc(C)cc(OP(C)(N)=O)c1 (configuration not stated),inactive: 152%
21,COc1ccc(OP(C)(=O)Nc2cccc(F)c2)cc1 (configuration not stated),inactive: 247%
22,O=[N+]([O-])c1cc([N+](=O)[O-])c(-c2ccn[nH]2)s1,inactive: 305%
23,CC(C)NC(=O)NP(=O)(Oc1ccccc1)Oc1ccccc1,inactive: 354%
